Data taken from US20100129800A1, “POLYMERS AND THEIR USE AS FLUORESCENT LABELS” (priority 2007, published 2010).

Assay: Fluorescence properties of the new compounds (excitation and emission wavelengths)
Format: physicochemical
Details: free compound
Excerpt: The excitation and emission wavelengths of the new compounds are described in Table 1. Optimal excitation wavelengths range from 247 to 433 nm and the corresponding emission wavelengths range from 392 to 505 nm. The quindoline derivatives with aminoproline backbone have the higher emission wavelengths. The phenylquinoline derivatives have the lower emission wavelengths.

| Fluorescence emission (nm) | Fluorescence Excitation (nm) | Molecule |
| --- | --- | --- |
| 446 nm |  | CC(=O)N[C@@H](CCCNC(=O)CNC(=O)c1c2ccccc2nc2ccccc12)C(=O)N[C@@H](CCCNC(=O)CNC(=O)c1c2ccccc2nc2c1[nH]c1ccccc12)C(=O)N[C@@H](CCCNC(=O)CNC(=O)c1c2ccccc2nc2c1[nH]c1ccccc12)C(N)=O [Example 70, N^4-Acetyl-5-N-{2-(acridine-9-carboxamide)acetyl}ornithinyl-5-N-{2-(10H-indolo[3,2-b]quinoline-11-carboxamide)acetyl}ornithinyl-5-N-{2-(10H-indolo[3,2-b]quinoline-11-carboxamide)acetyl}ornithinamide] |
| 446 nm | 374 nm | N-((1,3-dihydroxybutan-2-ylcarbamoyl)methyl)-10H-indolo[3,2-d]quinoline-11-carboxamide [Compound 2c] |
